The assay addresses Thymidylate synthase (Escherichia coli, UniProt C3SWJ7). The experiment in a line: Inhibition of Escherichia coli thymidylate synthase.

Sequences of proteins named here, by UniProt entry; tags and fusion partners are left off.
UniProt C3SWJ7, whole entry: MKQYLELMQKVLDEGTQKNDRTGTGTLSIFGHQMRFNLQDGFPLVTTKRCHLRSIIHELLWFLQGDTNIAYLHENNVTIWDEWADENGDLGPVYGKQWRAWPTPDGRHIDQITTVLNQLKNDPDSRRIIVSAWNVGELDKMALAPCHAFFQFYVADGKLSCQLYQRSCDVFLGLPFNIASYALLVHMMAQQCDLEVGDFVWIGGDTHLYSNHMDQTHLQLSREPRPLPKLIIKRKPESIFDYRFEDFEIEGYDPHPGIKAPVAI

Turning to `Nc1nc2[nH]cc(CCc3ccc(C(=O)N[C@@H](CCC(=O)O)C(=O)O)cc3)c2c(=O)[nH]1` [PEMETREXED], the IC50 amounted to 38 µM.

The values are drawn from ChEMBL document CHEMBL1149313, “Synthesis of classical, three-carbon-bridged 5-substituted furo[2,3-d]pyrimidine and 6-substituted pyrrolo[2,3-d]pyrimidine analogues as antifolates” (J Med Chem, 2004).
